Source: PubChem BioAssay AID720648 (The Scripps Research Institute Molecular Screening Center, 2013)
Only a part is listed here, and it is no random draw. Some structures show a salt or complex split into parts, the way the source records it. Active and inactive are the calls of the source.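 How the source made its calls: active means inhibition above the mean of compounds lying between control limits plus 3 SD, set per campaign (cut at about 8.5% in these data); inactive means the rest.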

Chains of the proteins cited; added tags and fusions are not shown. Residues count along the entry.
UniProt P78536, 215-824 limits assumed: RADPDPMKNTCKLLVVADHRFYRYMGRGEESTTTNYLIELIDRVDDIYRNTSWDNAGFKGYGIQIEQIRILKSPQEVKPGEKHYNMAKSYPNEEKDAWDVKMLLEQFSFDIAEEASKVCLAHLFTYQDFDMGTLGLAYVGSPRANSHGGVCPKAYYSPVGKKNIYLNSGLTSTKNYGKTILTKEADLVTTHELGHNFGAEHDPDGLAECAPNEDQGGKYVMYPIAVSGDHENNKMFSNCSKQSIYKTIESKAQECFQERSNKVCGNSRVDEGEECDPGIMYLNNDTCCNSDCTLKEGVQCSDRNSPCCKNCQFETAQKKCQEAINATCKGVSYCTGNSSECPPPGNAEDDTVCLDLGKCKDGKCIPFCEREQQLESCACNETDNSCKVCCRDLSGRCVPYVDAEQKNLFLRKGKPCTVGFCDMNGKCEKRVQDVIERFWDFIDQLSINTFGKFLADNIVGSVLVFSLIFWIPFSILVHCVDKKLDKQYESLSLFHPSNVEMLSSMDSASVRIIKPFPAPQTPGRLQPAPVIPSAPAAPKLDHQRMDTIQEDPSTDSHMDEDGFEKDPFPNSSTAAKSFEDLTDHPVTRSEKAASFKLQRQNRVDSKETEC

What follows are compounds tested against Disintegrin and metalloproteinase domain-containing protein 17 (Homo sapiens) (UniProt P78536) (assay: inhibition of ADAM17 peptide cleavage – biochemical, QFRET, primary screen (AID 720648;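 further: 0% = DMSO-only wells as the low control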)). Conditions: recombinant ADAM17, EDANS/DABCYL FRET peptide cleavage; at 6.95 µM; hits give high values.

SMILES	inhibition
CP(=S)(Nn1cnnc1)Oc1ccccc1 (centres undefined)	inactive: -0.47%
CP(=O)(Nc1ccccc1Br)Oc1ccccc1 (centres undefined)	inactive: -3.26%
COc1ccccc1OP(C)(=O)Nc1ccccc1 (centres undefined)	inactive: -5.17%
O=[N+]([O-])c1cc([N+](=O)[O-])c(O)c([N+](=O)[O-])c1.c1ccc(Oc2ccncc2)cc1	inactive: 5.19%
CCOC(=O)c1ccc(NP(C)(=O)Oc2ccc(OC)cc2)cc1 (centres undefined)	inactive: -0.57%
CCOP(C)(=S)SCC(=O)NC(C)C(=O)O (centres undefined)	inactive: -0.4%
CP(=O)(Nc1ccccn1)Oc1ccc(Cl)cc1 (centres undefined)	inactive: -4.3%
CP(=O)(Nc1ccc(SC(F)(F)F)cc1)Oc1ccc(Cl)cc1 (centres undefined)	inactive: -0.19%
Cc1cccc(C)c1OP(C)(=O)Nc1ccc(SC(F)(F)F)cc1 (centres undefined)	inactive: -24.5%
CP(=O)(Oc1ccccc1)OC(c1ccccc1)C(F)(F)F (centres undefined)	inactive: -0.92%
CCc1ccc(OP(C)(=O)N2CCN(c3ccc([N+](=O)[O-])cc3)CC2)cc1 (centres undefined)	inactive: 0.33%
CP(=O)(NC(=O)Nc1ccccc1)Oc1ccccc1 (centres undefined)	inactive: -2.34%
Cc1cc(C)cc(OP(C)(=O)Nc2ccc(SC(F)(F)F)cc2)c1 (centres undefined)	inactive: -2.39%
COc1ccccc1-c1ccccn1.O=[N+]([O-])c1cc([N+](=O)[O-])c(O)c([N+](=O)[O-])c1	inactive: -2.24%
CCN(CC)CCCOC(=O)C(O)(c1ccccc1)c1ccccc1	inactive: -5.02%
COc1ccccc1OP(C)(=O)Nc1ccc(C)cc1 (centres undefined)	inactive: 3.02%
Cc1ccc(NP(C)(=O)Oc2ccccc2)c(C)c1 (centres undefined)	inactive: -3.45%
CCOC(=O)c1ccc(NP(C)(=O)Oc2ccccc2)cc1 (centres undefined)	inactive: -5.62%
Cc1cc(C)cc(OP(C)(N)=O)c1 (centres undefined)	inactive: 3.27%
COc1ccccc1OP(C)(=O)Nc1cc(Cl)ccc1C (centres undefined)	inactive: 0.22%
COc1ccc(OP(C)(=O)Nc2cccc(F)c2)cc1 (centres undefined)	inactive: -5.38%
O=[N+]([O-])c1cc([N+](=O)[O-])c(Nc2cccnc2)c([N+](=O)[O-])c1	inactive: 1.46%
O=[N+]([O-])c1ccc2c(c1)C=Nc1ccccc1O2	inactive: 1.24%
CC(C)(C)c1ccc(OP(C)(=O)Nc2ccc(SC(F)(F)F)cc2)cc1 (centres undefined)	inactive: -0.43%
Cc1cccc(C)c1OP(C)(N)=O (centres undefined)	inactive: -0.65%

SMILES	inhibition
CC1=NCCc2c1[nH]c1ccccc21.O=[N+]([O-])c1cc([N+](=O)[O-])c(O)c([N+](=O)[O-])c1	inactive: -11.8%
O=C(O)c1cccc(Nc2c([N+](=O)[O-])cc([N+](=O)[O-])cc2[N+](=O)[O-])c1	inactive: 1.13%
Cc1ccc(C)c(NP(C)(=O)Oc2ccccc2)c1 (centres undefined)	inactive: -1.05%
CP(=O)(Nc1cccc(Br)c1)Oc1ccccc1 (centres undefined)	inactive: 2.32%
Cc1cc(C)cc(OP(C)(=O)Nc2ccccn2)c1 (centres undefined)	inactive: -2.85%
COc1ccccc1OP(C)(=O)Nc1cccc(Br)c1 (centres undefined)	inactive: -0.56%
CCOC(=O)c1ccc(NP(C)(=O)Oc2cc(C)cc(C)c2)cc1 (centres undefined)	inactive: 3.63%
Cc1cc(C)cc(OP(C)(=O)Nc2ccc(C)cc2C)c1 (centres undefined)	inactive: 2.57%
O=[N+]([O-])c1cc([N+](=O)[O-])c(-c2cnn(-c3ccccc3)c2)c([N+](=O)[O-])c1	inactive: 1.46%
Cc1nc2ccc3ccccc3c2s1.O=[N+]([O-])c1cc([N+](=O)[O-])c(O)c([N+](=O)[O-])c1	active: 9.22%
O=[N+]([O-])c1cc([N+](=O)[O-])c(-n2nnc3ccccc32)c([N+](=O)[O-])c1	inactive: -0.13%
CN(Cc1cccnc1)C(=O)COc1ccc(Cl)c(Cl)c1.O=[N+]([O-])c1cc([N+](=O)[O-])c(O)c([N+](=O)[O-])c1	inactive: -2.95%
CN1CCCCC1COC(=O)C1(O)c2ccccc2CCc2ccccc21 (centres undefined)	inactive: -1.5%
COc1ccccc1OP(C)(=O)Nc1c(C)cccc1C (centres undefined)	inactive: -2.17%
COc1ccc(-c2ccccn2)cc1.O=[N+]([O-])c1cc([N+](=O)[O-])c(O)c([N+](=O)[O-])c1	inactive: 1.77%
CP(=O)(Nc1ccc(SC(F)(F)F)cc1)Oc1ccccc1 (centres undefined)	inactive: 2.69%
CCCOc1ccc(NP(C)(=O)Oc2ccc(Cl)cc2)cc1 (centres undefined)	inactive: -1.62%
O=[N+]([O-])c1cc([N+](=O)[O-])c(Nc2nnnn2CCO)c([N+](=O)[O-])c1	inactive: 3.66%
CCOC(=O)C(CC)C1=NC(C)(C)Cc2ccccc21.O=[N+]([O-])c1cc([N+](=O)[O-])c(O)c([N+](=O)[O-])c1 (centres undefined)	inactive: -0.85%
O=[N+]([O-])c1ccc(OP2(=O)COCCO2)cc1 (centres undefined)	inactive: 0.38%
Cc1cc(-c2cccc3ccccc23)c(C)cn1.O=[N+]([O-])c1cc([N+](=O)[O-])c(O)c([N+](=O)[O-])c1	inactive: 1.66%
O=[N+]([O-])c1cc([N+](=O)[O-])c(NCC2CCS(=O)(=O)C2)c([N+](=O)[O-])c1 (centres undefined)	inactive: -2.69%
Cc1c(C(c2ccc3c(c2)OCO3)c2c(C)n(C)n(-c3ccccc3)c2=O)c(=O)n(-c2ccccc2)n1C.O=[N+]([O-])c1cc([N+](=O)[O-])c(O)c([N+](=O)[O-])c1	inactive: -7.9%
COc1ccc(OP(C)(=O)Nc2cccc(Br)c2)cc1 (centres undefined)	inactive: 2.68%
CN(C)CCOC(=O)C(O)(c1ccccc1)C1CCCCC1 (centres undefined)	inactive: 3.28%

SMILES	inhibition
COc1ccc(NP(C)(=O)Oc2ccccc2OC)cc1 (centres undefined)	inactive: 1.41%
CP(=O)(Nc1ccc2c(c1)OCCO2)Oc1ccccc1 (centres undefined)	inactive: -3.25%
Cc1ccccc1NP(C)(=O)Nc1ccccc1C	inactive: 0.58%
O=[N+]([O-])c1cc([N+](=O)[O-])c(C(F)(F)F)c([N+](=O)[O-])c1O	inactive: 1.64%
CP(=O)(Nc1ccc(SC(F)(F)F)cc1)Oc1ccc(F)cc1 (centres undefined)	inactive: 6.32%
CCOP(C)(=S)SCC(=O)NC(C)(CC)C(=O)O (centres undefined)	inactive: -3.63%
CCOP(=O)(CC)OCC	inactive: -6.28%
O=C(OC1CN2CCC1CC2)c1ccc([N+](=O)[O-])cc1 (centres undefined)	inactive: 1.58%
O=C(OCCN1CCN(CCOCc2ccccc2)CC1)C(O)(c1ccccc1)c1ccccc1	inactive: 2.09%
COc1ccc2c(c1O)-c1c(O)c(OC)cc3c1[C@H](C2)[N+](C)(C)CC3.O=[N+]([O-])c1cc([N+](=O)[O-])c([O-])c([N+](=O)[O-])c1[O-]	inactive: -154%
O=[N+]([O-])c1cc([N+](=O)[O-])c(Nc2ccc(Cl)cc2)c([N+](=O)[O-])c1	inactive: 6.69%
CP(=O)(Nc1ccccc1F)Oc1ccccc1 (centres undefined)	inactive: -2.98%
CC(C)c1ccc(OP(C)(=O)Nc2ccc(SC(F)(F)F)cc2)cc1 (centres undefined)	inactive: 5.46%
Cc1c([N+](=O)[O-])cc([N+](=O)[O-])c(Br)c1[N+](=O)[O-]	inactive: 4.89%
CCN(CC)CCCOC(=O)C(O)(c1ccccc1)C1CCCCC1 (centres undefined)	inactive: 0.9%
CP(=O)(Nc1ccccc1)Oc1ccc(F)cc1 (centres undefined)	inactive: -2.89%
O=[N+]([O-])c1cc([N+](=O)[O-])c(OC2CCCCC2O)c([N+](=O)[O-])c1 (centres undefined)	inactive: -4.24%
CCCCCOc1ccc(NP(C)(=O)Oc2ccc(Cl)cc2Cl)cc1 (centres undefined)	inactive: 1.89%
CCN(CC)CCCNc1ccccc1[N+](=O)[O-].O=[N+]([O-])c1cc([N+](=O)[O-])c(O)c([N+](=O)[O-])c1	inactive: 2.24%
CCOC(=O)c1ccc(NP(C)(=O)Oc2ccc(F)cc2)cc1 (centres undefined)	inactive: -3.45%
COc1ccc(OP(C)(=O)Nc2ccc(SC(F)(F)F)cc2)cc1 (centres undefined)	inactive: 4.83%
CP(=O)(OCCOc1ccccc1)OCCOc1ccccc1	inactive: 1.61%
CP(=O)(Nc1ccc(Cl)cc1Cl)Oc1ccccc1 (centres undefined)	inactive: -8.1%
CCCCCCCCCCCCCCCC1C[N+](C)(C)CCOP(C)(=O)O1 (centres undefined)	inactive: 0.47%
O=C1C(O)=C([N+](=O)[O-])C(=O)C(O)=C1[N+](=O)[O-]	inactive: -4.62%

SMILES	inhibition
Cc1cc(C)cc(OP(C)(=O)Nc2cccc(C(F)(F)F)c2)c1 (centres undefined)	inactive: 0.5%
COc1ccccc1OP(C)(=O)Nc1ccc(C)c(C)c1 (centres undefined)	inactive: -7.16%
COc1ccc(OP(C)(=O)Nc2ccccc2Br)cc1 (centres undefined)	inactive: -3.32%
O=[N+]([O-])c1cc([N+](=O)[O-])c(Nc2ccccn2)c([N+](=O)[O-])c1	inactive: 1.67%
Cc1c(NP(C)(=O)Oc2ccc(C(C)C)cc2)c(=O)n(-c2ccccc2)n1C (centres undefined)	inactive: -2.52%
CP(=O)(Nc1ccccn1)Oc1ccccc1 (centres undefined)	inactive: -2.49%
COc1ccccc1OP(C)(=O)Nc1ccc(C)cc1C (centres undefined)	inactive: -8.31%
CCc1ccc(OP(C)(=O)O)cc1	inactive: -0.3%
COc1ccccc1OP(C)(=O)Nc1ccc(Br)cc1 (centres undefined)	inactive: -3.97%
COc1ccc(OP(C)(=O)Nc2ccccn2)cc1 (centres undefined)	inactive: -1.3%
CN(C)CCOC(=O)C(O)(c1ccccc1)C1CCCC1 (centres undefined)	inactive: 0.61%
CC(C)(C)c1ccc(OP(C)(=O)O)cc1	inactive: -1.11%
COc1ccccc1OP(C)(=O)Nc1ccccc1Br (centres undefined)	inactive: 0.92%
CP(=O)(Nc1ccc(Cl)cc1)Oc1ccc(F)cc1 (centres undefined)	inactive: -2.73%
CN(C)C(=O)c1c([N+](=O)[O-])cc([N+](=O)[O-])cc1[N+](=O)[O-]	inactive: -0.36%
CCN(CC)CC(O)COC(=O)C(O)(c1ccccc1)C1CCCCC1 (centres undefined)	inactive: -1.76%
COc1ccc(OP(C)(=O)Nc2ccc(Br)cc2)cc1 (centres undefined)	inactive: 0.29%
COc1ccccc1OP(C)(=O)Nc1c(C)n(C)n(-c2ccccc2)c1=O (centres undefined)	inactive: -4.46%
O=C(OCCCN1CCCC1)C(O)(c1ccccc1)C1CCCCC1 (centres undefined)	inactive: -5.28%
CP(=O)(Oc1ccccc1)N1CCOC1=O (centres undefined)	inactive: -0.17%
CCc1ccc(OP(C)(=O)Nc2cccnc2)cc1 (centres undefined)	inactive: -6.01%
Nc1ccc2c(ccc3cccnc32)n1.O=[N+]([O-])c1cc([N+](=O)[O-])c(O)c([N+](=O)[O-])c1	inactive: -61.6%
CCOC(=O)c1ccc(NP(C)(=O)Oc2ccc(Cl)cc2)cc1 (centres undefined)	inactive: 7.37%
CP(=O)(OC12CC3CC(CC(C3)C1)C2)OC12CC3CC(CC(C3)C1)C2	inactive: -2.57%
